Test: Inhibition of F1F0-ATP synthase in Escherichia coli

Q: With `CC[C@H](C)[C@H](NC(=O)CN)C(=O)NCC(=O)N[C@@H](C)C(=O)N[C@H](C(=O)N[C@@H](CC(C)C)C(=O)N[C@@H](CCCCN)C(=O)N[C@H](C(=O)N[C@@H](CC(C)C)C(=O)N[C@H](C(=O)N[C@H](C(=O)NCC(=O)N[C@@H](CC(C)C)C(=O)N1CCC[C@H]1C(=O)N[C@@H](C)C(=O)N[C@@H](CC(C)C)C(=O)N[C@H](C(=O)N[C@@H](CO)C(=O)N[C@@H](Cc1c[nH]c2ccccc12)C(=O)N[C@H](C(=O)N[C@@H](CCCCN)C(=O)N[C@@H](CCCNC(=N)N)C(=O)N[C@@H](CCCCN)C(=O)N[C@@H](CCCNC(=N)N)C(=O)N[C@@H](CCC(N)=O)C(=O)N[C@@H](CCC(N)=O)C(N)=O)[C@@H](C)CC)[C@@H](C)CC)[C@@H](C)O)[C@@H](C)O)C(C)C)C(C)C` [MELITTIN] as the molecule, how does the IC50 read?
A: The IC50 was 7.84 µM.

From ChEMBL document CHEMBL4414576, “Recent advancements in mechanistic studies and structure activity relationship of FoF1 ATP synthase inhibitor as antimicrobial agent” (Eur J Med Chem, 2019)
